Source: patent US9890152B2 (Genentech, Inc., priority 2012, dated 2018)

Chains of the proteins cited; added tags and fusions are not shown. Residues count along the entry.
UniProt P00533, 25-1210 T790M/L858R limits assumed: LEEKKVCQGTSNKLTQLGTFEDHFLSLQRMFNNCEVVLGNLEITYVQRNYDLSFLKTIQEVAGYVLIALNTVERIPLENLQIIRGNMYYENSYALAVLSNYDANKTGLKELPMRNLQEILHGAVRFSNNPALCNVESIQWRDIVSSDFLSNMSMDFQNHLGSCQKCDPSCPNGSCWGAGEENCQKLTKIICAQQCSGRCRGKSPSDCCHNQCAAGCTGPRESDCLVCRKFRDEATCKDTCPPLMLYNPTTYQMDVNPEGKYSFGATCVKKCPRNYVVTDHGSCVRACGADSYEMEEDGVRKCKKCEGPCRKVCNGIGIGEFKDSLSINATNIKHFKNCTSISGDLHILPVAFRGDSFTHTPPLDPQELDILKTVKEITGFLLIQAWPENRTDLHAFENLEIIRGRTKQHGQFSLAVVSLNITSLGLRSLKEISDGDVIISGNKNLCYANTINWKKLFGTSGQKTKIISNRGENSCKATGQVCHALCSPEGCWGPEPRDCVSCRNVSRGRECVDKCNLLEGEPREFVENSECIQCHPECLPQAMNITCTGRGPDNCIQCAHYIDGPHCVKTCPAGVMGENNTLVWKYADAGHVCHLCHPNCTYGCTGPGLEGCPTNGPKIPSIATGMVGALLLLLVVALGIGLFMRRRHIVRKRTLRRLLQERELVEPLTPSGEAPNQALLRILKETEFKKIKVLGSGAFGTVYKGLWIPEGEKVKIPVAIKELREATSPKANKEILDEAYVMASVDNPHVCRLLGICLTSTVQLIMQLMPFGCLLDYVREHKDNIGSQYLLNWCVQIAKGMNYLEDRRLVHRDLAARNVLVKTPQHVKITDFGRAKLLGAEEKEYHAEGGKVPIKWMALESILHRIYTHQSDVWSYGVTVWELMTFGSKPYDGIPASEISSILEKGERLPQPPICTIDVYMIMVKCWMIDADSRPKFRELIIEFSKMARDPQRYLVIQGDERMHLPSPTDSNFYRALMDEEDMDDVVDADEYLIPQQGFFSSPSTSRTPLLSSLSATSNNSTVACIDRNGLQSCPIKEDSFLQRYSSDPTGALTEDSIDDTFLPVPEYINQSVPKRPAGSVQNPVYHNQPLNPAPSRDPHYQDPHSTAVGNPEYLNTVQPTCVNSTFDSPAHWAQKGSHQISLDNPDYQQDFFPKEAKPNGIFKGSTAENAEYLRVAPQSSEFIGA

Biological target: EGFR T790M L858R (Homo sapiens, UniProt P00533, L858R/T790M)
Assay: biochemical
Conditions: EGFR(T790M/L858R) Ki (μM), 5 μM ATP, 30 min, room temperature; apparent Ki (Morrison) converted by Cheng-Prusoff, Km of ATP 1.3 μM

Row | Structure (SMILES) | Ki [µM]
1 | CC(=O)N1CC2CN(c3nccc(Nc4cc5c(cn4)ncn5C(C)C)n3)CC2C1 (centres unmarked) [Example 68, 1-(5-(4-(1-isopropyl-1H-imidazo[4,5-c]pyridin-6-ylamino)pyrimidin-2-yl)-hexahydropyrrolo[3,4-c]pyrrol-2(1H)-yl)ethanone] | 1.71
2 | COC1CCN(c2nccc(Nc3cc4c(cn3)c(C(=O)NCCS(C)(=O)=O)cn4C(C)C)n2)CC1 [Example 249] | 0.0028
3 | CC(C)n1cc(C(N)=O)c2cnc(Nc3ccnc(N4CCc5[nH]ncc5C4)n3)cc21 [Example 60, 6-((2-(6,7-Dihydro-1H-pyrazolo[4,3-c]pyridin-5(4H)-yl)pyrimidin-4-yl)amino)-1-isopropyl-1H-pyrrolo[3,2-c]pyridine-3-carboxamide] | 0.0057
4 | CC(C)n1cc(N2CCOCC2)c2cnc(Nc3ccnc(-c4cnn(S(=O)(=O)C5CC5)c4)n3)cc21 [Example 330, N-(2-(1-(Cyclopropylsulfonyl)-1H-pyrazol-4-yl)pyrimidin-4-yl)-1-isopropyl-3-morpholino-1H-pyrrolo[3,2-c]pyridin-6-amine] | 0.0034
5 | CC(C)n1cnc2cnc(Nc3ccnc(N4C[C@@H]5[C@@H](CO)[C@@H]5C4)n3)cc21 [Example 47, ((1R,5S,6r)-3-(4-((1-isopropyl-1H-imidazo[4,5-c]pyridin-6-yl)amino)pyrimidin-2-yl)-3-azabicyclo[3.1.0]hexan-6-yl)methanol] | 0.522
6 | CNC(=O)C1CCN(c2nccc(Nc3cc4c(cn3)ncn4C(C)C)n2)C1 (centres unmarked) [Example 183] | 1.64
7 | CCC(C)n1cnc2cnc(Nc3ccnc(N4CCC(OC)CC4)n3)cc21 (racemic) [Example 153, ± (1-sec-butyl-1H-imidazo[4,5-c]pyridin-6-yl)-[2-(4-methoxypiperidin-1-yl)pyrimidin-4-yl]amine] | 0.0091
8 | CC(C)n1cnc2cnc(Nc3ccnc(N4CCC5(CC4)CNC(=O)O5)n3)cc21 [Example 14, 8-[4-(1-Isopropyl-1H-imidazo[4,5-c]pyridin-6-ylamino)pyrimidin-2-yl]-1-oxa-3,8-diazaspiro[4.5]decan-2-one] | 0.0843
9 | COC1(C)CCN(c2nccc(Nc3cc4c(cn3)ncn4C(C)C)n2)CC1 [Example 144, (1-Isopropyl-1H-imidazo[4,5-c]pyridin-6-yl)-[2-(4-methoxy-4-methylpiperidin-1-yl)pyrimidin-4-yl]amine] | 0.0326
10 | CC(C)n1cnc2cnc(Nc3ccnc(N4CCC(C(N)=O)CC4)n3)cc21 [Example 131, 1-[4-(1-Isopropyl-1H-imidazo[4,5-c]pyridin-6-ylamino)pyrimidin-2-yl]piperidine-4-carboxylic acid amide] | 0.11
11 | COC1CCN(c2nccc(Nc3cc4c(cn3)nc([C@@H](C)O)n4[C@H](C)C(F)(F)F)n2)CC1F (mixture of isomers) [Example 297, (R)-1-[6-[2-(cis-3-Fluoro-4-methoxypiperidin-1-yl)pyrimidin-4-ylamino]-1-((R)-2,2,2-trifluoro-1-methylethyl)-1H-imidazo[4,5-c]pyridin-2-yl]ethanol] | 0.00725
12 | CC(C)n1cnc2cnc(Nc3ccnc(N4CCC5(CC4)CC(N)C5)n3)cc21 [Example 233] | 1.06
13 | COc1ncc(-c2nccc(Nc3cc4c(cn3)ncn4C(C)C)n2)cn1 [Example 99, 1-isopropyl-N-(2′-methoxy-[2,5′-bipyrimidin]-4-yl)-1H-imidazo[4,5-c]pyridin-6-amine] | 0.361
14 | CC(C)n1cnc2cnc(Nc3ccnc(N4CCN(C(=O)OC(C)(C)C)CC4)n3)cc21 [Example 181] | 0.118
15 | CCC(C)(CNc1nccc(Nc2cc3c(cn2)nc(C)n3C(C)C)n1)C(=O)O (centres unmarked) [Example 299, 2-{[4-(1-Isopropyl-2-methyl-1H-imidazo[4,5-c]pyridin-6-ylamino)pyrimidin-2-ylamino]methyl}-2-methylbutyric acid] | 0.353
16 | COC1CCN(c2nccc(Nc3cc4c(cn3)c(C(=O)NC3CNC3)cn4C(C)C)n2)CC1 [Example 250] | 0.0054

Second part, the compound after the results:

Row | Ki [µM] | Structure (SMILES)
17 | 0.0381 | CC(=O)N1CC(S(=O)(=O)n2cc(-c3nccc(Nc4cc5c(cn4)nc(C)n5C(C)C)n3)cn2)C1 [Example 466, 1-(3-(4-(4-(1-isopropyl-2-methyl-1H-imidazo[4,5-c]pyridin-6-ylamino)pyrimidin-2-yl)-1H-pyrazol-1-ylsulfonyl)azetidin-1-yl)ethanone]
18 | 0.00576 | Cc1cn[nH]c1-c1cn(C(C)C)c2cc(Nc3ccnc(N4CCC(O)C(C)(C)C4)n3)ncc12 (centres unmarked) [Example 347, 1-(4-((1-Isopropyl-3-(4-methyl-1H-pyrazol-5-yl)-1H-pyrrolo[3,2-c]pyridin-6-yl)amino)pyrimidin-2-yl)-3,3-dimethylpiperidin-4-ol]
19 | 0.00556 | CCc1ncc(-c2nccc(Nc3cc4c(cn3)nc(C)n4C(C)C)n2)s1 [Example 595, [2-(2-Ethylthiazol-5-yl)pyrimidin-4-yl]-(1-isopropyl-2-methyl-1H-imidazo[4,5-c]pyridin-6-yl)amine]
20 | 0.00784 | CC(C)n1c([C@@H](C)O)nc2cnc(Nc3ccnc(N4CC[C@@H](O)[C@@H](F)C4)n3)cc21 [Example 658]
21 | 0.0825 | Cc1nc2cnc(Nc3ccnc(-n4cnc(C(C)O)c4)n3)cc2n1C(C)C (racemic) [Example 332, (+/−)-1-(1-(4-((1-Isopropyl-2-methyl-1H-imidazo[4,5-c]pyridin-6-yl)amino)pyrimidin-2-yl)-1H-imidazol-4-yl)ethanol]
22 | 0.169 | COC1(CCN(C)C)CCN(c2nccc(Nc3cc4c(cn3)nc(C)n4C(C)C)n2)CC1 [Example 521, {2-[4-(2-Dimethylaminoethyl)-4-methoxypiperidin-1-yl]pyrimidin-4-yl}-(1-isopropyl-2-methyl-1H-imidazo[4,5-c]pyridin-6-yl)amine]
23 | 0.0436 | Cc1nc2cnc(Nc3ccnc(N4CCC(C)(O)CC4)n3)cc2n1C(C)C [Example 682]
24 | 0.355 | Cc1n[nH]c(C)c1-c1nccc(Nc2cc3c(cn2)nc(C)n3C(C)C)n1 [Example 362, N-(2-(3,5-Dimethyl-1H-pyrazol-4-yl)pyrimidin-4-yl)-1-isopropyl-2-methyl-1H-imidazo[4,5-c]pyridin-6-amine]
25 | 0.001 | CC[C@H](C)n1cc(C(=O)NC2CCOCC2)c2cnc(Nc3ccnc(N4CC[C@H](OC)[C@H](F)C4)n3)cc21 (single isomer, unassigned) [Example 340]
26 | 0.118 | Cc1nc2cnc(Nc3ccnc(N4CCC5(CCNC5=O)CC4)n3)cc2n1C(C)C [Example 502, 8-(4-((1-Isopropyl-2-methyl-1H-imidazo[4,5-c]pyridin-6-yl)amino)pyrimidin-2-yl)-2,8-diazaspiro[4.5]decan-1-one]
27 | 0.0245 | Cc1nc2cnc(Nc3ccnc(N4CCC5(CC4)OCCCO5)n3)cc2n1C(C)C [Example 648]
28 | 0.000674 | CC(C)n1cc(C(=O)N[C@H]2C[C@@H](O)[C@@H](O)C2)c2cnc(Nc3ccnc(-c4cnn(S(=O)(=O)C5CC5)c4)n3)cc21 [Example 451, 6-(2-(1-(cyclopropylsulfonyl)-1H-pyrazol-4-yl)pyrimidin-4-ylamino)-N-((1r,3R,4S)-3,4-dihydroxycyclopentyl)-1-isopropyl-1H-pyrrolo[3,2-c]pyridine-3-carboxamide]
29 | 0.00435 | CCC(C)n1cc(C(=O)NC2CCOCC2)c2cnc(Nc3ccnc(N4CCC(C)(O)CC4)n3)cc21 (racemic) [Example 638, 1-(sec-butyl)-6-((2-(4-hydroxy-4-methylpiperidin-1-yl)pyrimidin-4-yl)amino)-N-(tetrahydro-2H-pyran-4-yl)-1H-pyrrolo[3,2-c]pyridine-3-carboxamide]
30 | 0.000736 | CC(C)n1cc(C(=O)NC2CC[S+]([O-])CC2)c2cnc(Nc3ccnc(-c4cnn(S(=O)(=O)C5CC5)c4)n3)cc21 (centres unmarked) [Example 455, 6-((2-(1-(cyclopropylsulfonyl)-1H-pyrazol-4-yl)pyrimidin-4-yl)amino)-1-isopropyl-N-(1-oxidotetrahydro-2H-thiopyran-4-yl)-1H-pyrrolo[3,2-c]pyridine-3-carboxamide]
31 | 0.00336 | C[C@H](n1c(CO)nc2cnc(Nc3ccnc(N4CC[C@H](O)[C@H](F)C4)n3)cc21)C(F)(F)F [Example 667]
32 | 0.000528 | CC(C)n1cc(C(=O)NC2CCS(=O)(=O)CC2)c2cnc(Nc3ccnc(-c4cnn(S(=O)(=O)C5CC5)c4)n3)cc21 [Example 457, 6-((2-(1-(cyclopropylsulfonyl)-1H-pyrazol-4-yl)pyrimidin-4-yl)amino)-N-(1,1-dioxidotetrahydro-2H-thiopyran-4-yl)-1-isopropyl-1H-pyrrolo[3,2-c]pyridine-3-carboxamide]
33 | 0.00622 | CCc1ncc(-c2nccc(Nc3cc4c(cn3)nc(CO)n4C(C)C)n2)s1 [Example 671]
34 | 0.0817 | CO[C@H]1CCN(c2nccc(Nc3cc4c(cn3)nc(CO)n4C(C)C)n2)C[C@H]1C(F)(F)F (racemic) [Example 628, (1-Isopropyl-6-(2-((±)-(cis)-4-methoxy-3-(trifluoromethyl)piperidin-1-yl)pyrimidin-4-ylamino)-1H-imidazo[4,5-c]pyridin-2-yl)methanol]
35 | 0.00123 | CC(C)n1cc(-c2cnn(CC3(O)COC3)c2)c2cnc(Nc3ccnc(-c4cnn(S(=O)(=O)C5CC5)c4)n3)cc21 [Example 440, 3-((4-(6-(2-(1-(cyclopropylsulfonyl)-1H-pyrazol-4-yl)pyrimidin-4-ylamino)-1-isopropyl-1H-pyrrolo[3,2-c]pyridin-3-yl)-1H-pyrazol-1-yl)methyl)oxetan-3-ol]
36 | 0.0135 | CC(C)n1c(CO)nc2cnc(Nc3ccnc(N4CC[C@H](O)[C@H](F)C4)n3)cc21 (racemic) [Example 510, (±)-3-Fluoro-1-(4-((2-(hydroxymethyl)-1-isopropyl-1H-imidazo [4,5-c]pyridin-6-yl)amino)pyrimidin-2-yl)piperidin-4-ol]
37 | 0.0939 | Cc1nc2cnc(Nc3ccnc(N4CCCC(c5ccn[nH]5)C4)n3)cc2n1C(C)C (centres unmarked) [Example 364, N-(2-(3-(1H-Pyrazol-5-yl)piperdine-1-yl)pyrimidin-4-yl)-1-isopropyl-2-methyl-1H-imidazo[4,5-c]pyridin-6-amine]
38 | 0.0135 | COC1(CO)CCN(c2nccc(Nc3cc4c(cn3)nc(C)n4C(C)C)n2)CC1 [Example 517, {1-[4-(1-Isopropyl-2-methyl-1H-imidazo[4,5-c]pyridin-6-ylamino)pyrimidin-2-yl]-4-methoxypiperidin-4-yl}methanol]
